CycPeptMPDB entries from one study

Collected by the curators of CycPeptMPDB (Li et al. 2023) from Kelly et al. 2021, doi:10.1021/jacs.0c06115.

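The data file gives no further conditions (lipid, pH, time, direction or concentration), and values from different papers need not be comparable. Other peptides of the study may be missing here. Entries at the database's floor value (log10 P of -10) are not listed.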

PAMPA measures passive passage through an artificial lipid membrane.
Permeability is given as log10 of P in cm/s; higher (less negative) is more permeable.

compound,PAMPA (log10 cm/s)
CC(=O)N1CCC[C@H]1C(=O)N[C@@H]1C(=O)N(C)[C@H](CC(C)C)C(=O)N(C)[C@H](CC(C)C)C(=O)N[C@@H](CC(C)C)C(=O)N(C)[C@@H](CC(C)C)C(=O)N(C)[C@H](C)C(=O)N[C@@H](CC(C)C)C(=O)N2CCC[C@@H]2C(=O)O[C@@H]1C,-4.92
CC(=O)N1CCC[C@H]1C(=O)N[C@@H]1C(=O)N[C@H](CC(C)C)C(=O)N(C)[C@H](CC(C)C)C(=O)N[C@H](CC(C)C)C(=O)N[C@H](CC(C)C)C(=O)N[C@@H](C)C(=O)N[C@@H](CC(C)C)C(=O)N2CCC[C@@H]2C(=O)O[C@@H]1C,-5.10
CC(=O)N1CCC[C@H]1C(=O)N[C@@H]1C(=O)N(C)[C@H](CC(C)C)C(=O)N[C@@H](CC(C)C)C(=O)N(C)[C@@H](CC(C)C)C(=O)N(C)[C@H](CC(C)C)C(=O)N(C)[C@@H](C)C(=O)N[C@@H](CC(C)C)C(=O)N2CCC[C@@H]2C(=O)O[C@@H]1C,-5.70
CCC[C@@H]1NC(=O)[C@@H](CC)NC(=O)[C@@H](NC(=O)[C@@H](CC(C)C)N(C)C(=O)[C@@H]2CCCN2C(C)=O)[C@@H](C)OC(=O)[C@@H]2CCCN2C(=O)[C@H](CC(C)C)NC(=O)[C@@H](C)N(C)C(=O)[C@@H](Cc2cccc3ccccc23)NC1=O,-5.62
CC(=O)N1CCC[C@H]1C(=O)N[C@@H]1C(=O)N(C)[C@H](CC(C)C)C(=O)N[C@H](CC(C)C)C(=O)N(C)[C@@H](CC(C)C)C(=O)N(C)[C@H](CC(C)C)C(=O)N[C@H](C)C(=O)N[C@@H](CC(C)C)C(=O)N2CCC[C@@H]2C(=O)O[C@@H]1C,-5.45
CC(=O)N1CCC[C@H]1C(=O)N(C)[C@H](CC(C)C)C(=O)N[C@@H]1C(=O)N[C@H](Cc2ccc(F)c(F)c2)C(=O)N[C@@H](CC(C)C)C(=O)N[C@H](Cc2ccc(F)c(F)c2)C(=O)N(C)[C@H](C)C(=O)N[C@@H](CC(C)C)C(=O)N2CCC[C@H]2C(=O)O[C@@H]1C,-5.55
CC(=O)N1CCC[C@H]1C(=O)N[C@@H]1C(=O)N(C)[C@H](CC(C)C)C(=O)N(C)[C@@H](CC(C)C)C(=O)N[C@H](CC(C)C)C(=O)N(C)[C@@H](CC(C)C)C(=O)N[C@H](C)C(=O)N[C@@H](CC(C)C)C(=O)N2CCC[C@@H]2C(=O)O[C@@H]1C,-5.33
CC[C@H]1NC(=O)[C@H](CCc2ccccc2)NC(=O)[C@@H](Cc2ccccc2)NC(=O)[C@@H](NC(=O)[C@@H](CC(C)C)N(C)C(=O)[C@@H]2CCCN2C(C)=O)[C@@H](C)OC(=O)[C@@H]2CCCN2C(=O)[C@H](CC(C)C)NC(=O)[C@@H](C)N(C)C1=O,-5.70
CCC[C@H]1NC(=O)[C@@H](NC(=O)[C@@H](CC(C)C)N(C)C(=O)[C@@H]2CCCN2C(C)=O)[C@@H](C)OC(=O)[C@@H]2CCCN2C(=O)[C@H](CC(C)C)NC(=O)[C@@H](C)N(C)C(=O)[C@@H](Cc2ccccc2)NC(=O)[C@H](CC(C)C)NC1=O,-5.46
CC[C@@H]1NC(=O)[C@@H](CC)NC(=O)[C@@H](NC(=O)[C@@H](CC(C)C)N(C)C(=O)[C@@H]2CCCN2C(C)=O)[C@@H](C)OC(=O)[C@@H]2CCCN2C(=O)[C@H](CC(C)C)NC(=O)[C@@H](C)N(C)C(=O)[C@@H](Cc2ccc(F)c(F)c2)NC1=O,-6.56
CC(=O)N[C@@H]1C(=O)N2CCC[C@H]2C(=O)N(C)[C@H](CC(C)C)C(=O)N[C@H](CC(C)C)C(=O)N(C)[C@@H](CC(C)C)C(=O)N[C@H](CC(C)C)C(=O)N(C)[C@H](C)C(=O)N[C@@H](CC(C)C)C(=O)N2CCC[C@@H]2C(=O)O[C@@H]1C,-5.93
CC[C@@H]1NC(=O)[C@@H](CC2CCCCC2)NC(=O)[C@@H](NC(=O)[C@@H](CC(C)C)N(C)C(=O)[C@@H]2CCCN2C(C)=O)[C@@H](C)OC(=O)[C@@H]2CCCN2C(=O)[C@H](CC(C)C)NC(=O)[C@@H](C)N(C)C(=O)[C@@H](Cc2ccccc2)NC1=O,-5.22
CCC[C@H]1NC(=O)[C@H](Cc2ccc(F)cc2)NC(=O)[C@@H](CC(C)C)NC(=O)[C@@H](NC(=O)[C@@H](CC(C)C)N(C)C(=O)[C@@H]2CCCN2C(C)=O)[C@@H](C)OC(=O)[C@@H]2CCCN2C(=O)[C@H](CC(C)C)NC(=O)[C@@H](C)N(C)C1=O,-5.58
CCC[C@H]1NC(=O)[C@H](Cc2ccc(OC)cc2)NC(=O)[C@@H](CC2CCCCC2)NC(=O)[C@@H](NC(=O)[C@@H](CC(C)C)N(C)C(=O)[C@@H]2CCCN2C(C)=O)[C@@H](C)OC(=O)[C@@H]2CCCN2C(=O)[C@H](CC(C)C)NC(=O)[C@@H](C)N(C)C1=O,-5.95
COc1ccc(C[C@@H]2NC(=O)[C@@H](CC3CCCCC3)NC(=O)[C@@H](NC(=O)[C@@H](CC(C)C)N(C)C(=O)[C@@H]3CCCN3C(C)=O)[C@@H](C)OC(=O)[C@@H]3CCCN3C(=O)[C@H](CC(C)C)NC(=O)[C@@H](C)N(C)C(=O)[C@@H](Cc3ccc(F)c(F)c3)NC2=O)cc1,-6.66
CCC[C@H]1NC(=O)[C@H](Cc2ccc(OC)cc2)NC(=O)[C@@H](CC)NC(=O)[C@@H](NC(=O)[C@@H](CC(C)C)N(C)C(=O)[C@@H]2CCCN2C(C)=O)[C@@H](C)OC(=O)[C@@H]2CCCN2C(=O)[C@H](CC(C)C)NC(=O)[C@@H](C)N(C)C1=O,-6.85
CC(=O)N1CCC[C@H]1C(=O)N[C@@H]1C(=O)N(C)[C@H](CC(C)C)C(=O)N[C@H](CC(C)C)C(=O)N(C)[C@H](CC(C)C)C(=O)N[C@@H](CC(C)C)C(=O)N[C@H](C)C(=O)N[C@@H](CC(C)C)C(=O)N2CCC[C@@H]2C(=O)O[C@@H]1C,-5.67
CC(=O)N1CCC[C@H]1C(=O)N(C)[C@H](CC(C)C)C(=O)N[C@@H]1C(=O)N[C@H](Cc2ccc(F)c(F)c2)C(=O)N[C@@H](Cc2ccccc2)C(=O)N[C@H](Cc2ccccc2)C(=O)N(C)[C@H](C)C(=O)N[C@@H](CC(C)C)C(=O)N2CCC[C@H]2C(=O)O[C@@H]1C,-5.82
CCC[C@H]1NC(=O)[C@@H](NC(=O)[C@@H](CC(C)C)N(C)C(=O)[C@@H]2CCCN2C(C)=O)[C@@H](C)OC(=O)[C@@H]2CCCN2C(=O)[C@H](CC(C)C)NC(=O)[C@@H](C)N(C)C(=O)[C@@H](CC2CCCCC2)NC(=O)[C@H](Cc2ccc(OC)cc2)NC1=O,-6.85
COc1ccc(C[C@@H]2NC(=O)[C@@H](Cc3ccccc3)NC(=O)[C@@H](NC(=O)[C@@H](CC(C)C)N(C)C(=O)[C@@H]3CCCN3C(C)=O)[C@@H](C)OC(=O)[C@@H]3CCCN3C(=O)[C@H](CC(C)C)NC(=O)[C@@H](C)N(C)C(=O)[C@@H](Cc3ccccc3)NC2=O)cc1,-6.19
CC(=O)N1CCC[C@H]1C(=O)N[C@@H]1C(=O)N[C@H](CC(C)C)C(=O)N(C)[C@H](CC(C)C)C(=O)N[C@@H](CC(C)C)C(=O)N[C@H](CC(C)C)C(=O)N[C@@H](C)C(=O)N[C@@H](CC(C)C)C(=O)N2CCC[C@@H]2C(=O)O[C@@H]1C,-5.21
CC(=O)N[C@@H]1C(=O)N2CCC[C@H]2C(=O)N(C)[C@H](CC(C)C)C(=O)N[C@@H](CC(C)C)C(=O)N[C@H](CC(C)C)C(=O)N(C)[C@@H](CC(C)C)C(=O)N[C@@H](C)C(=O)N[C@@H](CC(C)C)C(=O)N2CCC[C@@H]2C(=O)O[C@@H]1C,-5.36
CC(=O)N1CCC[C@H]1C(=O)N[C@@H]1C(=O)N[C@H](CC(C)C)C(=O)N[C@H](CC(C)C)C(=O)N(C)[C@H](CC(C)C)C(=O)N(C)[C@H](CC(C)C)C(=O)N[C@@H](C)C(=O)N[C@@H](CC(C)C)C(=O)N2CCC[C@@H]2C(=O)O[C@@H]1C,-5.93
CC(=O)N1CCC[C@H]1C(=O)N[C@@H]1C(=O)N(C)[C@H](CC(C)C)C(=O)N[C@@H](CC(C)C)C(=O)N(C)[C@H](CC(C)C)C(=O)N[C@H](CC(C)C)C(=O)N[C@H](C)C(=O)N[C@@H](CC(C)C)C(=O)N2CCC[C@@H]2C(=O)O[C@@H]1C,-5.76
CC(=O)N[C@@H]1C(=O)N2CCC[C@H]2C(=O)N(C)[C@H](CC(C)C)C(=O)N[C@H](CC(C)C)C(=O)N(C)[C@H](CC(C)C)C(=O)N[C@H](CC(C)C)C(=O)N(C)[C@@H](C)C(=O)N[C@@H](CC(C)C)C(=O)N2CCC[C@@H]2C(=O)O[C@@H]1C,-5.34

The 2 lowest values of PAMPA among the entries above:

{"smiles": "CCC[C@H]1NC(=O)[C@H](Cc2ccc(OC)cc2)NC(=O)[C@@H](CC)NC(=O)[C@@H](NC(=O)[C@@H](CC(C)C)N(C)C(=O)[C@@H]2CCCN2C(C)=O)[C@@H](C)OC(=O)[C@@H]2CCCN2C(=O)[C@H](CC(C)C)NC(=O)[C@@H](C)N(C)C1=O", "PAMPA (log10 cm/s)": "-6.85"}
{"smiles": "CCC[C@H]1NC(=O)[C@@H](NC(=O)[C@@H](CC(C)C)N(C)C(=O)[C@@H]2CCCN2C(C)=O)[C@@H](C)OC(=O)[C@@H]2CCCN2C(=O)[C@H](CC(C)C)NC(=O)[C@@H](C)N(C)C(=O)[C@@H](CC2CCCCC2)NC(=O)[C@H](Cc2ccc(OC)cc2)NC1=O", "PAMPA (log10 cm/s)": "-6.85"}